# Laboratory results taken from PubChem BioAssay (EPA / NIEHS).
# Only a part is listed here, and it is no random draw. Activity calls are given as the source filed them. How the source made its calls: active means hit-call score of the fitted dose curve at least 0.9, where 1 is the maximum; inactive means score below 0.9.
# Test: ATG_PPRE_CIS: Attagene CIS-FACTORIAL HepG2 Assay for human Peroxisome Proliferator-activated Response Element (PPRE) (AID 2282958)
# Settings: HepG2 PPRE cis-element reporter, Attagene transcription factor profiling; actives raise or lower the signal
SMILES,outcome,AC50
c1ccc2sc(SSN3CCOCC3)nc2c1,inactive,–
C=CC(=O)OCCOCCOCC,inactive,–
O=C(O)COCC(=O)O,inactive,–
CCCCCCCOC(=O)c1ccc(O)cc1,–,active: 59.4 µM
N#Cc1cscn1,inactive,–
OC[C@@H](O)[C@@H](O)[C@H](O)[C@H](O)CO,inactive,–
COC(=O)c1ccc(I)cc1S(=O)(=O)NC(=O)Nc1nc(C)nc(OC)n1,inactive,–
CCOC(=O)c1ccccc1C,inactive,–
C=COCC1CCC(COC=C)CC1 (stereo not given),inactive,–
CCCCCCCC(=O)O,inactive,–
CC(C)CCCCCOC(=O)CS,inactive,–
OCCOCCOCCO,inactive,–
CC1(C)C(=O)N(Cl)C(=O)N1Cl,inactive,–
C=C[Si](C)(C)O[Si](C)(C)C=C,inactive,–
O=c1c(O)c(-c2ccc(O)c(O)c2)oc2cc(O)cc(O)c12,–,active: 27.4 µM
CC(=O)OCCOC(C)=O,inactive,–
CC(=O)c1ccccc1O,inactive,–
NC(N)=S,inactive,–
C=CCOc1c(Br)cc(Br)cc1Br,inactive,–
CC[N+](C)(CC)CC,inactive,–

SMILES,outcome,AC50
O=CCc1ccccc1,inactive,–
CCCC(=O)C(CC)Sc1ccoc1C (stereo not given),inactive,–
CC(=O)O[C@@H]1C[C@@H]2CC[C@@]1(C)C2(C)C,inactive,–
O=C1c2ccccc2C(=O)c2c(O)ccc(O)c21,inactive,–
OCC#CCO,inactive,–
CC(=O)O[C@@H]1CC2CCC1(C)C2(C)C (stereo not given in full),inactive,–
CC[N+](CC)(CC(=O)Nc1c(C)cccc1C)Cc1ccccc1,inactive,–
CCCCCCCCCCO,inactive,–
CCCC(=O)OC,inactive,–
O=C(O)CCCCCCCC(=O)O,inactive,–
O=[N+]([O-])C1(Br)COCOC1,inactive,–
N=C1N=C(N)c2ccccc21,inactive,–
CCCCN(CCO)CCO,inactive,–
Cc1cc(C)c(C(=O)O)c(C)c1,inactive,–
CC(C)(c1ccccc1)c1ccc(Nc2ccc(C(C)(C)c3ccccc3)cc2)cc1,inactive,–
CCCCCCc1ccc(O)cc1O,–,active: 31.1 µM
Nc1ccc(Nc2ccccc2)cc1,inactive,–
C=C(C)C(=O)OCCC(F)(F)C(F)(F)C(F)(F)C(F)(F)C(F)(F)C(F)(F)F,inactive,–
CN(C)C(=O)Nc1ccc(Oc2ccc(Cl)cc2)cc1,inactive,–
CC(C)(O)c1coc(S(=O)(=O)NC(=O)Nc2c3c(cc4c2CCC4)CCC3)c1,inactive,–
